Patent US6528630B1 (priority 1997, dated 2003)

Amino acid sequences for entries named in this document (tags omitted). Residues count along the entry.
UniProt Q01668, 10-2161: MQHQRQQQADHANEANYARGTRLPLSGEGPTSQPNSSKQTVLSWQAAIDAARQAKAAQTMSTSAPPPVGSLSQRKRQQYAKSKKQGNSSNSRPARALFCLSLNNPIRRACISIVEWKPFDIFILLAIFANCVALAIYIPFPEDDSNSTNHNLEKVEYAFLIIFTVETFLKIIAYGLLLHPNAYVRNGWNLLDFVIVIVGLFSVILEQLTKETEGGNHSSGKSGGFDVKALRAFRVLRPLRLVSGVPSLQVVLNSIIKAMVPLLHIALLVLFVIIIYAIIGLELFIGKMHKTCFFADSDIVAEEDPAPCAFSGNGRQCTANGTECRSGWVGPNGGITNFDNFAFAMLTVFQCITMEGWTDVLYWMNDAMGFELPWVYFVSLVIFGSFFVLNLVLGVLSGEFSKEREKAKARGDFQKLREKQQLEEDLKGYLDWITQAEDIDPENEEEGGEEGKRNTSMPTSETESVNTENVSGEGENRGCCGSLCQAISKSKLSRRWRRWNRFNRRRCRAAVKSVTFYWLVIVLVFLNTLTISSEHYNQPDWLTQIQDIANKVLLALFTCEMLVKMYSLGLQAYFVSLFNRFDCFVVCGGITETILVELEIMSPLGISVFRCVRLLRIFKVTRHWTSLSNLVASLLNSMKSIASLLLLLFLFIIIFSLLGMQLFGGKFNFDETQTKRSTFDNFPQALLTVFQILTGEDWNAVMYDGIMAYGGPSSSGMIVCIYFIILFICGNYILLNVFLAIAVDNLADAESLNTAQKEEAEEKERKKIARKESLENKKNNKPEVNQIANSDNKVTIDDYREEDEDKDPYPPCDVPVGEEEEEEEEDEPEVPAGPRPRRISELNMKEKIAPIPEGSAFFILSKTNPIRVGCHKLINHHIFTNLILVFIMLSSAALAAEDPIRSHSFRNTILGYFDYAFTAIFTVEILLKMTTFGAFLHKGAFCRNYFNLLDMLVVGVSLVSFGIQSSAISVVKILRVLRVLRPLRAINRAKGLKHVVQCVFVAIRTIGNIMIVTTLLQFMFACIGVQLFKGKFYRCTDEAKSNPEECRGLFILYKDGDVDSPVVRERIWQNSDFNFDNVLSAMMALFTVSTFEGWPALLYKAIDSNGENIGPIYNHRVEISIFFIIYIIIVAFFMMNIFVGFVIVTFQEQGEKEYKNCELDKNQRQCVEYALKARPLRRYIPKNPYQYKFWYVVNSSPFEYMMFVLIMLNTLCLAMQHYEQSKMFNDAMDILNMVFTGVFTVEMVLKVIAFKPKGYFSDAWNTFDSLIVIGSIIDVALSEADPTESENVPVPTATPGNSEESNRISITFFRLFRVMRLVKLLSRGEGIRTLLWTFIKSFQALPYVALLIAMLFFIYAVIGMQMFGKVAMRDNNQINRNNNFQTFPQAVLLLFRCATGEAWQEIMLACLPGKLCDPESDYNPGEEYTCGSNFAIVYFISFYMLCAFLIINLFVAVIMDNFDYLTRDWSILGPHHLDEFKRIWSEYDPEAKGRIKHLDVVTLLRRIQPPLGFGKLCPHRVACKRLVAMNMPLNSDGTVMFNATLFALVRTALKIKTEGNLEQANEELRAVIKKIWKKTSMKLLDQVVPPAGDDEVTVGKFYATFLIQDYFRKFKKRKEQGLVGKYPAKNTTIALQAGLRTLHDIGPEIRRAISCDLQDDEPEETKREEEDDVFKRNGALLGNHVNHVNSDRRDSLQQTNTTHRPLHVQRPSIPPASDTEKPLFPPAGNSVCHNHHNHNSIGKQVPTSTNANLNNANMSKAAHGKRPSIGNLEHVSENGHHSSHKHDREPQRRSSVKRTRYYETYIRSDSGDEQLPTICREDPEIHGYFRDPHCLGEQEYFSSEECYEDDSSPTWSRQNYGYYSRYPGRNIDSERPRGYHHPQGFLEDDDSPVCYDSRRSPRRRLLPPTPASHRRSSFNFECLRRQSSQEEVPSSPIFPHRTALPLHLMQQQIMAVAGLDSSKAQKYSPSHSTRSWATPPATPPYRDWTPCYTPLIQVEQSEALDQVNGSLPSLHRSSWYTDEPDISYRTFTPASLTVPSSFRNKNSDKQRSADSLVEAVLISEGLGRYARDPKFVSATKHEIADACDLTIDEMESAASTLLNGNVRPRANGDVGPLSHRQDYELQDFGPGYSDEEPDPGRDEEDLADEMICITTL

Biological target: human neuronal calcium channel α1D, α2 and β1 subunits (Homo sapiens, UniProt Q01668)
Format: cell-based
Parameters: expressed in transfected cells; host or cells: Xenopus laevis oocytes injected with in vitro transcripts

SMILES: C[C@@H](O)[C@@H]1NC(=O)[C@H](Cc2ccc(O)cc2)NC(=O)[C@@H]2C[C@@H](O)CN2C(=O)[C@H](CC(N)=O)NC(=O)[C@@H]2CSSC[C@@H]3NC(=O)[C@H](CO)NC(=O)[C@H](CO)NC(=O)CNC(=O)[C@@H]4C[C@@H](O)CN4C(=O)[C@H](CO)NC(=O)[C@H](CCCCN)NC(=O)[C@@H](N)CSSC[C@H](NC(=O)[C@H](CSSC[C@@H](C(=O)N[C@@H](Cc4ccc(O)cc4)C(N)=O)NC(=O)[C@H](CCCNC(=N)N)NC(=O)[C@H](CCCCN)NC1=O)NC(=O)[C@H](CC(N)=O)NC(=O)[C@H](Cc1ccc(O)cc1)NC(=O)[C@H](CO)NC(=O)[C@H]([C@@H](C)O)NC(=O)[C@@H]1C[C@@H](O)CN1C(=O)[C@H](CO)NC3=O)C(=O)N[C@@H](CCCNC(=N)N)C(=O)N[C@@H](CO)C(=O)N2 [ω-CgTX]
- reversibility of block: reversibly
